The results in this text go back to patent publication EP4847525A1, “PREPARATION METHOD FOR AND USE OF LACTOFERRIN AND FORMULATION THEREOF” (dated 2026).

A word on the Kd: it is the concentration at which binding is half-saturated.

Assay [1] deals with methacryloylated apo-lactoferrin (Apo-LfMA), methacrylic anhydride grafting degree 30%, apo-lactoferrin de-ironed at pH=4.0 (Embodiment 6). Put plainly: SPR (Biacore) binding constant KD of heme binding to lactoferrin. The conditions noted are these: read-out: KD value of the lactoferrin binding to heme, Embodiment 6, grafting degree 30%, de-ironing at pH 4.0. The text has this: (§1) Value of a binding constant KD: The technique used is a surface plasmon resonance (SPR) technique with a Biacore instrument. The SPR principle is used to detect an interaction between a ligand on a biosensor chip and an analyte. To study an interaction between two molecules, one molecule is immobilized onto a chip surface, while the other molecule flows continuously over the chip surface in the form of a solution. […] Calculation formula: KD=kd/ka, where ka is an affinity rate at which heme is bound to the protein, and kd is a dissociation rate.
A use of a lactoferrin in binding to heme is provided, and specific steps are as follows. • (1) Acetic acid, sodium acetate (at a molar ratio of 1:1), and EDTA are added to a PBS solution with a pH of 4.0 to prepare a mixed solution, and lactoferrin powder to be de-ironed (Bega, Australia) is then dissolved in the mixed solution at room temperature to prepare a lactoferrin solution to be de-ironed with a concentration of 10 g/100 mL. In the mixed solution, the concentration of PBS is 0.01 M, the total concentration of acetic acid and sodium acetate is 0.1 M, and the concentration of EDTA is 500 mM.
A usage ratio of methacrylic anhydride to the apo-lactoferrin is 0.03 mL/1 g. A grafting degree of methacrylic anhydride on the methacryloylated apo-lactoferrin is 30%.
The methacryloylated lactoferrin has 11 heme-binding sites. […]
For orientation: Surface plasmon resonance follows binding to a sensor surface in real time, without labels.

The subject of assay [2] is methacryloylated apo-lactoferrin (100% Apo-LfMA), methacrylic anhydride grafting degree 100%, apo-lactoferrin de-ironed at pH=2.0 (Embodiment 7). Described as above. The conditions noted are these: read-out: KD value of the lactoferrin binding to heme, Embodiment 7, grafting degree 100%, de-ironing at pH 2.0.
Excerpt: as §1
A use of a lactoferrin in binding to heme is provided, and specific steps are as follows. • (1) Acetic acid, sodium acetate (at a molar ratio of 1:1), and EDTA are added to a PBS solution with a pH of 2.0 to prepare a mixed solution, and lactoferrin powder to be de-ironed (Bega, Australia) is then dissolved in the mixed solution at room temperature to prepare a lactoferrin solution to be de-ironed with a concentration of 10 g/100 mL.
A molecular weight cutoff of the dialysis bag is 7,000 Da.
A usage ratio of methacrylic anhydride to the apo-lactoferrin is 2 mL/1 g. A grafting degree of methacrylic anhydride on the methacryloylated apo-lactoferrin is 100%.
The methacryloylated lactoferrin has 10 heme-binding sites. A KD value of the lactoferrin binding to heme is 2.02 nM.

Consider heme, for which the Kd in assay [1] came to 0.38 nM; in assay [2], 2.02 nM.
